Earlier results on one molecule are cited in patent US20060240402A1, “Marine invertebrate gametes and embryos as an assay system for therapeutic screening” (priority 2005, published 2006).

SMILES strings stand for the structures.

This data set deals with tubulin. The note with it: reported to inhibit mitosis; cited from earlier work.

Consider `COc1cc2c(c(OC)c1OC)-c1ccc(OC)c(=O)cc1[C@@H](NC(C)=O)CC2` [Colchicine], for which the “Effect on tubulin polymerization (reported)” value is on record as “significantly affecting tubulin polymerization”.
